How the values were obtained:
[1] = system: Immortalized Human Corneal Epithelial cell line (I-HCEC); assay: In vitro evaluation of expression of inflammatory cytokines in I-HCEC (real-time PCR); type: cell-based
Protocol: The peptide HAP (SEQ ID NO:1) and the peptide of SEQ ID NO:2 were tested in vitro for evaluation of their direct influence on expression of inflammatory cytokines in the cornea. The tests were conducted on Immortalized Human Corneal Epithelial cell line (I-HCEC) (Innoprot, Bizkaia, Spain, Ref. P10871). This is derived from Primary Human Corneal Epithelial Cells (>99% purity) and is suitable for studies of human cornea in health and disease. […] The cell medium was supplemented with 5% Fetal Bovine Serum (FBS). Cells were seeded at 320000 cells/well 6 plate and 15000 cells/well 96 plate. […] Total RNA was isolated from 6 wells plate using Quick-Start RNeasy Mini Kit (Qiagen, cat. No 74104) according to the manufacturer's instructions. Retro-transcription was performed using SuperScript Vilo (ref. 11755050, Life technologies) and real-time PCR using TaqMan protocol (ref. 4444557, Applied Biosystem) adapted for CFX96 Real-Time System. The experiments were performed three times, each time in duplicate. The used probes from Thermo Fisher Scientific are: human CXCL8 (Hs00174103_m1), human IL6 (Hs00174131_m1), human TNFα (Hs99999043_m1). As housekeeping gene was used GAPDH (probe Hs02758991_g1). […] Untreated I-HCEC were used as negative control (Vehicle).

[2] = Isoelectric point, log D and log P (SiriusT3); type: physicochemical; conditions: 25±1° C., 0.15 M KCl
Protocol: The main physicochemical properties (Isoelectric point (IP), log D (7.4) and log P) of the peptides of Table 8 below were determined by using the SiriusT3 apparatus (Sirius Analytical Instruments Ltd., East Sussex, UK) equipped with an Ag/AgCl double junction reference pH electrode, a Sirius D-PAS spectrometer and a turbidity sensing device. The pH electrode was calibrated titrimetrically in the pH range 1.8-12.2. An overhead stirrer was used and a temperature probe (Peltier controller) monitored the temperature during the course of the titration. The titration experiments were conducted in 0.15 M KCl Ionic Strength Adjusted solution (ISA water) under a nitrogen atmosphere at a temperature of 25±1° C. All tests were performed using standardized 0.5 M KOH and 0.5 M HCl as titration reagents, for the partition coefficient tests a saturated Octanol in ISA water (5% of ISA water) was used as partition solvent. The pKas were determined by potentiometric method by pH-metric titration. The powder (around 0.5 mg) was dissolved in 1.5 ml of ISA water and the titration was performed in triplicate in the pH range 2.0−12.0.

CC[C@H](C)[C@H](NC(C)=O)C(=O)N[C@@H](Cc1c[nH]cn1)C(=O)N[C@H](C(=O)N[C@H](C(=O)N[C@H](C(=O)N1CCC[C@H]1C(=O)N[C@@H](C)C(=O)N[C@@H](CC(=O)O)C(=O)N[C@@H](CC(C)C)C(=O)N[C@@H](Cc1c[nH]c2ccccc12)C(=O)N[C@@H](CC(=O)O)C(=O)N[C@@H](Cc1c[nH]c2ccccc12)C(=O)N[C@H](C(=O)N[C@@H](CC(N)=O)C(=O)N[C@@H](CCCCN)C(N)=O)[C@@H](C)CC)[C@@H](C)CC)[C@@H](C)O)C(C)C [SEQ ID NO: 1, reference compound]
increase of IL-6 expression [1]: 10 fold
increase of TNF-α expression [1]: 8 fold
IP (isoelectric point) [2]: 5.14
